The list shows a part of the results, in another mix than the full data. Some of these compounds have results that are not shown, active ones among them. The source made the active and inactive calls.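 How the source made its calls: active means membrane potential signal moves up or down beyond 5 SD from buffer-only wells, on both duplicate plates; inactive means the rest.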

This assay in a line: parental HEK293 membrane potential modulation, confirmation, counter-screen for TRPC6 modulator project, cell-based (AID 488924). The note with it: parental HEK293, membrane potential dye fluorescence; at 10 µM.
Regarding `CN1[C@@H]2CC[C@H]1CC(OC(=O)C(O)(c1ccccc1)c1ccccc1)C2` (some centres not stated), the membrane potential signal change result is “inactive”. For `CCN(CC)CC(C)C(C)OC(=O)C(O)(c1ccccc1)c1ccccc1` (configuration not stated) the value was active: 142%.

Source of the values: PubChem BioAssay AID488924 (Johns Hopkins Ion Channel Center, 2010).
